Literature values, collected in patent US11826586B2, “Method for dyeing keratin material, comprising the use of an organic C1-C6-alkoxy-silane and an alkalising agent” (Henkel AG & Co. KGaA, priority 2019, dated 2023).

Conditions: 25° C.

**Q.** For “3,4,5,6-tetrachloro-2-(1,4,5,8-tetrabromo-6-hydroxy-3-oxoxanthen-9-yl)benzoic acid [Acid Red 92]”, which solubility in water is on record?
**A.** The solubility in water was “greater than 10 g/L”.
